# Experimental data taken from patent publication US20260183304A1, “COMBINATION OF A TYROSINE KINASE INHIBITOR AND A PRO-INFLAMMATORY AGENT FOR TREATING CANCER” (MDX Management LLC, priority 2022, published 2026).
# System: MC38, KPC and LLC tumor models
# Assay: Syngeneic murine tumor models, TKi alone or with proinflammatory activators
# Format: in vivo, mice
# Details: TLR or Sting agonists induced
# Procedure: In vivo tests. […]. […] […].
# […]. Tumor volume changes were recorded.
structure (smiles),measurement,value
"Cc1nc(Nc2ncc(C(=O)Nc3c(C)cccc3Cl)s2)cc(N2CCN(CCO)CC2)n1 [Dasatinib, N-(2-chloro-6-methylphenyl)-2-[[6-[4-(2-hydroxyethyl)-1-piperazinyl]-2-methyl-4-pyrimidinyl]amino]-5-thiazole carboxamide monohydrate]",neutrophil infiltration into tumors,moderately curbs down
